{"source": "paper PMC9862819", "about": "“Structural Characterization of Murine Phosphodiesterase 5 Isoforms and Involvement of Cysteine Residues in Supramolecular Assembly” (International Journal of Molecular Sciences, 2023)", "key": {"[1]": {"biological_target": "Mus musculus phosphodiesterase 5 isoform A1 (MmPDE5A1) (Mus musculus)", "test": "SEC-SAXS; SE-HPLC-SAXS, SWING beamline; Superdex S200 5/150, 50 mM HEPES pH 7.5, 75 mM NaCl, 37.5 mM MgCl2, 293 K, 0.2 mL/min; 40 uL injected at 3 and 1 mg/mL; fractions of dimer and tetramer by gaussian deconvolution (US-SOMO)"}, "[2]": {"biological_target": "Mus musculus phosphodiesterase 5 isoform A1 (MmPDE5A1) (Mus musculus)", "test": "negative-stain transmission electron microscopy; purified samples diluted to 0.6 mg/mL, uranyl acetate 2%, no ligands or effectors, 120 kV"}, "[3]": {"biological_target": "Mus musculus phosphodiesterase 5 isoform A1 (MmPDE5A1) (Mus musculus)", "test": "native gel or EMSA; native PAGE, 5% nondenaturing acrylamide gel, Tris-glycine pH 8.3, 4 °C, 1.0 ug purified protein a lane, freshly purified or preincubated at 30 °C (cGMP, sildenafil, EDTA, DTT, diamide, NEM) in 50 mM HEPES pH 7.5, 50 mM NaCl, 15 mM MgCl2; Coomassie staining"}, "[4]": {"biological_target": "Mus musculus phosphodiesterase 5 isoform A2 (MmPDE5A2) (Mus musculus)", "test": "SEC-SAXS; SE-HPLC-SAXS, SWING beamline; Superdex S200 5/150, 50 mM HEPES pH 7.5, 75 mM NaCl, 37.5 mM MgCl2, 293 K, 0.2 mL/min; 40 uL injected at 3 and 1 mg/mL; fractions of dimer and tetramer by gaussian deconvolution (US-SOMO)"}, "[5]": {"biological_target": "Mus musculus phosphodiesterase 5 isoform A2 (MmPDE5A2) (Mus musculus)", "test": "negative-stain transmission electron microscopy; purified samples diluted to 0.6 mg/mL, uranyl acetate 2%, no ligands or effectors, 120 kV"}, "[6]": {"biological_target": "Mus musculus phosphodiesterase 5 isoform A2 (MmPDE5A2) (Mus musculus)", "test": "native gel or EMSA; native PAGE after incubation with DTNB (increasing concentrations, different times; for A3 also 30 °C 1 h with or without EDTA, cGMP, sildenafil, NEM); 1 ug purified protein a lane; cysteines modified by DTNB"}, "[7]": {"biological_target": "Mus musculus phosphodiesterase 5 isoform A2 (MmPDE5A2) (Mus musculus)", "test": "native gel or EMSA; native PAGE, 5% nondenaturing acrylamide gel, Tris-glycine pH 8.3, 4 °C, 1.0 ug purified protein a lane, freshly purified or preincubated at 30 °C (cGMP, sildenafil, EDTA, DTT, diamide, NEM) in 50 mM HEPES pH 7.5, 50 mM NaCl, 15 mM MgCl2; Coomassie staining"}, "[8]": {"biological_target": "Mus musculus phosphodiesterase 5 isoform A3 (MmPDE5A3) (Mus musculus)", "test": "SEC-SAXS; SE-HPLC-SAXS, SWING beamline; Superdex S200 5/150, 50 mM HEPES pH 7.5, 75 mM NaCl, 37.5 mM MgCl2, 293 K, 0.2 mL/min; 40 uL injected at 3 and 1 mg/mL; fractions of dimer and tetramer by gaussian deconvolution (US-SOMO)"}, "[9]": {"biological_target": "Mus musculus phosphodiesterase 5 isoform A3 (MmPDE5A3) (Mus musculus)", "test": "non-reducing SDS-PAGE of unboiled samples; MmPDE5A3 after incubation with DTNB with or without NEM, not boiled, no reducing agent in the loading buffer"}, "[10]": {"biological_target": "Mus musculus phosphodiesterase 5 isoform A3 (MmPDE5A3) (Mus musculus)", "test": "non-reducing SDS-PAGE of unboiled samples; MmPDE5A3 alone or with sildenafil or DTT, not boiled, no reducing agent in the loading buffer"}, "[11]": {"biological_target": "Mus musculus phosphodiesterase 5 isoform A3 (MmPDE5A3) (Mus musculus)", "test": "negative-stain transmission electron microscopy; purified samples diluted to 0.6 mg/mL, uranyl acetate 2%, no ligands or effectors, 120 kV"}, "[12]": {"biological_target": "Mus musculus phosphodiesterase 5 isoform A3 (MmPDE5A3) (Mus musculus)", "test": "native gel or EMSA; native PAGE after incubation with DTNB (increasing concentrations, different times; for A3 also 30 °C 1 h with or without EDTA, cGMP, sildenafil, NEM); 1 ug purified protein a lane; cysteines modified by DTNB"}, "[13]": {"biological_target": "Mus musculus phosphodiesterase 5 isoform A3 (MmPDE5A3) (Mus musculus)", "test": "native gel or EMSA; native PAGE, 5% nondenaturing acrylamide gel, Tris-glycine pH 8.3, 4 °C, 1.0 ug purified protein a lane, freshly purified or preincubated at 30 °C (cGMP, sildenafil, EDTA, DTT, diamide, NEM) in 50 mM HEPES pH 7.5, 50 mM NaCl, 15 mM MgCl2; Coomassie staining"}}, "note": "Values joined by “and” are separate entries in the source; they are usually repeats but may differ in a detail not shown here. Equal values may be shown once."}
{"substance": "Mus musculus phosphodiesterase 5 isoform A1 (MmPDE5A1) (enzyme)", "values": [{"measurement": "% Dimer", "setting": "[1]", "value": 60, "unit": "%"}, {"measurement": "% Tetramer", "setting": "[1]", "value": 40, "unit": "%"}, {"measurement": "stoichiometry N", "setting": "[1]", "value": "4 and 2"}, {"measurement": "stoichiometry N", "setting": "[2]", "value": "4 and 2"}, {"measurement": "stoichiometry N", "setting": "[3]", "value": "2 and 4"}]}
{"substance": "Mus musculus phosphodiesterase 5 isoform A2 (MmPDE5A2) (from UniProt A0A0G2JF67 1-833) (enzyme)", "values": [{"measurement": "% Dimer", "setting": "[4]", "value": 97, "unit": "%"}, {"measurement": "% Tetramer", "setting": "[4]", "value": 3, "unit": "%"}, {"measurement": "stoichiometry N", "setting": "[4]", "value": 2}, {"measurement": "stoichiometry N", "setting": "[5]", "value": 2}, {"measurement": "stoichiometry N", "setting": "[6]", "value": 4}, {"measurement": "stoichiometry N", "setting": "[7]", "value": 2}]}
{"substance": "Mus musculus phosphodiesterase 5 isoform A3 (MmPDE5A3) (enzyme)", "values": [{"measurement": "% Dimer", "setting": "[8]", "value": 100, "unit": "%"}, {"measurement": "% Tetramer", "setting": "[8]", "value": 0, "unit": "%"}, {"measurement": "stoichiometry N", "setting": "[8]", "value": 2}, {"measurement": "stoichiometry N", "setting": "[9]", "value": "4 and 6 and 8"}, {"measurement": "stoichiometry N", "setting": "[10]", "value": 2}, {"measurement": "stoichiometry N", "setting": "[11]", "value": 2}, {"measurement": "stoichiometry N", "setting": "[12]", "value": "> 4"}, {"measurement": "stoichiometry N", "setting": "[13]", "value": 2}]}
